For the assay, the target named is Serotonin 2 (5-HT2) receptor (Rattus norvegicus, UniProt P30994+P08909+P14842). Put plainly: Binding affinity against 5-hydroxytryptamine 2 receptor of rat frontal cortex using [3H]ketanserin radioligand. Format: tissue-based.

By UniProt entry, the sequences of proteins in these tests, tags left out. Where a name states a change or a piece, a line headed by the entry shows the natural chain unless it says otherwise.
UniProt P30994: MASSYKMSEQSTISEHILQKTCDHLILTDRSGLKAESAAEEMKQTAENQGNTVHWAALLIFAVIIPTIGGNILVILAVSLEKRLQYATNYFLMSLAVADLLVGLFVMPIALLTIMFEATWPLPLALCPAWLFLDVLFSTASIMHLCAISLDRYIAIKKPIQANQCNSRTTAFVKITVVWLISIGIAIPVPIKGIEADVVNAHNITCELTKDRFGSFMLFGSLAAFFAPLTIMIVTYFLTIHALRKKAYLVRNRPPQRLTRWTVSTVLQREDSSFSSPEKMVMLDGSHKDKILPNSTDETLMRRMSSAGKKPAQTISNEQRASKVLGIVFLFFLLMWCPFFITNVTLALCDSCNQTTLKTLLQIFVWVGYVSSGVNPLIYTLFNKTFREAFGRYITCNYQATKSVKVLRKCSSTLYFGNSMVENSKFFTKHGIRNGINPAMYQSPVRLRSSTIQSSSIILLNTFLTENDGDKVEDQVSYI
UniProt P08909: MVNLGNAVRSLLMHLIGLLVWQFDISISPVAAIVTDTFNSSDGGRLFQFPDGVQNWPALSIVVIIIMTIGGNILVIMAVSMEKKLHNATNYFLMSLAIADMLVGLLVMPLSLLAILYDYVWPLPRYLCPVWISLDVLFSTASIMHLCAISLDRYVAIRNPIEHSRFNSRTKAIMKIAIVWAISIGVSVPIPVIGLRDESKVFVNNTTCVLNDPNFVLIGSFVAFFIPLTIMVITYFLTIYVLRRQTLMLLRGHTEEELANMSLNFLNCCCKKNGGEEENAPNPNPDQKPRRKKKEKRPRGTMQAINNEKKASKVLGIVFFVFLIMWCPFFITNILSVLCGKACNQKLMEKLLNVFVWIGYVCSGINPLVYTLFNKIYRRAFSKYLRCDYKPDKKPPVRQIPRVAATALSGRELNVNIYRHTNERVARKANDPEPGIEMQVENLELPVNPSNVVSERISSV
UniProt P14842: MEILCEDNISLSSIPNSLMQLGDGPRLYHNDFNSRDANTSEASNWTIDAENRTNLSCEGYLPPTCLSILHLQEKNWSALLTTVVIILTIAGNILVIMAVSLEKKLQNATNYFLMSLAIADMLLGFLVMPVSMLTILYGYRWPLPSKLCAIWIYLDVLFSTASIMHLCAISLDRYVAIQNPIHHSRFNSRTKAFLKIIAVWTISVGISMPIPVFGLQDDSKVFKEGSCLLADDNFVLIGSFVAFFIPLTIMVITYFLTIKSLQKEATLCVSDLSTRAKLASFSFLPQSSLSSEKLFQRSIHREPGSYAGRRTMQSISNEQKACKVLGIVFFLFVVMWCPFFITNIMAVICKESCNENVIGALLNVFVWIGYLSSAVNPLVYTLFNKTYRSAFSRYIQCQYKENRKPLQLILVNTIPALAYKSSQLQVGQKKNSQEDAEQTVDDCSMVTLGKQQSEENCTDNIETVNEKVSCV

Structures are written as SMILES.

For `COc1cc(OC)c(OC)cc1CC(C)N` (stereo unspecified), the Ki (in general, the dissociation constant of the complex between target and ligand, obtained from inhibition or displacement) worked out at 1.25 µM.

(Values after ChEMBL document CHEMBL1124715 (J Med Chem, 1990).)
